The target of this assay is BRD4(1) (Homo sapiens (Human), UniProt O60885). Briefly: Alpha-assay acetyl-histone binding, BRD4 site 1. The settings on record: 12-point dose response curve, read-out: Bio-assay IC50 BRD4(1). On the procedure: The binding activity of lead compounds with the BRD4 site 1 was determined by Alpha-assay with a 12-point dose response curve (FIG. 56A).
Assays were performed as described previously^8 with minor modifications from the manufacturer's protocol (PerkinElmer, USA). All reagents were diluted in 50 mM HEPES, 100 mM NaCl, 0.1% BSA, pH 7.4 supplemented with 0.05% CHAPS and allowed to equilibrate to room temperature prior to addition to plates. […] Plates were sealed and incubated for a further 30 minutes, before the addition of 4 μl of streptavidin-coated donor beads (25 μg/ml) and 4 μl nickel chelate acceptor beads (25 μg/ml) under low light conditions. Plates were foil-sealed to protect from light, incubated at room temperature for 60 minutes and read on a PHERAstar FS plate reader (BMG Labtech, Germany) using an AlphaScreen 680 excitation/570 emission filter set. IC50 values were calculated in Prism 5 (GraphPad Software, USA) after normalization against corresponding DMSO controls and are given as the final concentration of compound in the 20 μl reaction volume.

Each structure is given as a SMILES string.

For `Cc1sc2c(c1C)C(c1ccc(Cl)cc1)=NC(CC(=O)NCCCN1CCN(C)CC1)c1nnc(C)n1-2` (stereo not shown) [JQ35], the IC50 is 24.3 nM.
